AlphaSeq binding of Ab-95 light chain variants to a spike HR2 peptide

Binding partner: SARS-CoV-2 spike HR2 peptide, sequence PDVDLGDISGINAS.

Ab-95 is the parent antibody, in scFv form: VH, then a 15-residue (Gly4Ser)3 linker, then VL. The heavy chain is unchanged in all variants.
VH: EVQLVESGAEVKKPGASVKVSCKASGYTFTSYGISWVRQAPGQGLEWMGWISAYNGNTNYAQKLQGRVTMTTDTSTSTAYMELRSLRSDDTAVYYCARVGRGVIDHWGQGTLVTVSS
VL: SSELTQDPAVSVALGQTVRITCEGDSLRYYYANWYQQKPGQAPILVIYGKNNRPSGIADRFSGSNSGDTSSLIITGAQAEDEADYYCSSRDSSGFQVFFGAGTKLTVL

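The starting antibody came from a phage panning campaign against this peptide. Library AAYL52 holds single substitutions and randomly drawn double and triple substitutions in the CDRs. The scFvs were displayed on barcoded MATa yeast, the peptide on MATalpha yeast. Mating (16 h, 30 °C) was followed by selection of diploids and sequencing of their barcodes. Each replicate has its own calibration line, from reference interactions of the BCL2 family. Mating was done three times.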

Changes read parent residue, position, new residue, counted from the first residue of the VL shown.
This list gathers variants with a substitution at S88 (VL, numbered from residue 1).
Affinities are written as log10 Kd with Kd in nM; a lower number is a better binder.
Averages over replicates are reported, and they cover detected replicates only.
"no signal" means that the variant was in the library but no mating with the target was seen in any replicate; the authors take this as a sign of poor binding, and no number exists.
Empty control strains, which show no peptide, gave a signal in 28% of pairings with library AAYL52; the median was 3.91 and 95% of these signals were weaker than 2.90. No background was subtracted.
Parent in this assay: reference entry 2.31, copy in this library 2.25.

* P54M S88L V97D = 2.76 (1 of 3 replicates)
* Y30R S88C S92Q = 2.18 (3 of 3 replicates)
* R28M N51R S88M = 4.63 (1 of 3 replicates)
* N51I S55A S88K = no signal (0 of 3 replicates)
* G49D S88C D91P = 4.02 (1 of 3 replicates)
* P54S S88C F98R = 3.25 (2 of 3 replicates)
* K50W S88A D91G = no signal (0 of 3 replicates)
* S55V S88N S92E = 2.75 (3 of 3 replicates)
* G24I G49K S88N = 3.77 (2 of 3 replicates)
* D25G N52Y S88W = 3.72 (2 of 3 replicates)
* L27W S88T = 3.51 (2 of 3 replicates)
* D25M S26G S88E = 3.87 (3 of 3 replicates)
* D25M S55K S88D = 3.76 (2 of 3 replicates)
* S88D S93W = 2.45 (3 of 3 replicates)
* A32L N33V S88R = no signal (0 of 3 replicates)
* S88E F98H = 2.99 (3 of 3 replicates)
* A32P N52H S88C = 2.80 (3 of 3 replicates)
* L27F S88P R90V = 2.97 (3 of 3 replicates)
* N51K P54S S88E = no signal (0 of 3 replicates)
* Y31D S88Y F95P = 1.26 (3 of 3 replicates)
* R28V Y31P S88I = 3.05 (3 of 3 replicates)
* G49F S88K = 5.60 (1 of 3 replicates)
* G24Q Y31L S88Q = no signal (0 of 3 replicates)
* G24R S88R D91Y = 3.79 (1 of 3 replicates)
* N51K S88Q S93I = no signal (0 of 3 replicates)
* S88R V97I F98A = no signal (0 of 3 replicates)
* S26C S88T F95E = no signal (0 of 3 replicates)
* R53C S88P F95V = 4.53 (3 of 3 replicates)
* N51T R53Y S88K = 4.84 (2 of 3 replicates)
* R53E S88W F98M = no signal (0 of 3 replicates)
* G24M A32N S88L = 3.29 (2 of 3 replicates)
* G49F N51L S88M = 4.00 (1 of 3 replicates)
* S88Y S93G F95V = 3.61 (2 of 3 replicates)
* N33A N52F S88A = 3.05 (1 of 3 replicates)
* S55C S88V Q96R = 2.84 (3 of 3 replicates)
* Y31D S88Q D91H = 1.28 (3 of 3 replicates)
* Y29A S88A S89A = 1.61 (3 of 3 replicates)
* G49N S88N Q96M = 4.20 (2 of 3 replicates)
* L27T S88R S89N = no signal (0 of 3 replicates)
* R53Q P54F S88A = 4.16 (3 of 3 replicates)
* E23N Y30G S88T = 1.37 (3 of 3 replicates)
* N51Q S88V V97N = no signal (0 of 3 replicates)
* N52K S88H S93H = 2.97 (3 of 3 replicates)
* E23G R53L S88E = 3.45 (3 of 3 replicates)
* S88C D91C S92N = 2.69 (3 of 3 replicates)
* K50Q S88K S93E = no signal (0 of 3 replicates)

Reference: Engelhart et al. 2022, doi:10.1038/s41597-022-01779-4. File: FLAb, binding data.